# Test results as given in patent publication US11246873B2, “Directed differentiation of oligodendrocyte precursor cells to a myelinating cell fate” (The Scripps Research Institute, priority 2011, dated 2022).
# “Also recorded” adds a separate entry of the source. Read-outs that look alike come from different tables or passages of the source.
# Key:
# [1] = system: M1/M3 muscarinic receptors; conditions: OPCs; for effect on carbachol induced Ca2+ influx: carbachol 100 uM, compound at EC90
# Protocol: Following 6 days of treatment, cells were fixed and stained for MBP. Plates were imaged using the OPERA high content screening system and MBP staining was quantified as described. […] OPCs were plated in 384-well plates at 5000 cells per well in media containing basal PDGF-αα. Cells were equilibrated with Ca^2+ sensitive Fluo-3AM® dye in HBSS for 30 min. […] Ca^2+ influx was immediately measured using the FLIPR TETRA® system.
# (A-C) OPCs were plated in differentiation media for 12 hours. […] (C) Atropine, a muscarinic antagonist, serves as a positive control. (D) OPCs were plated in differentiation medium for 12 hours. A cAMP-HTRF assay was performed using the cAMP dynamic 2 kit. […] IBMX was added as a cAMP stabilizer, and forskolin was a positive control.
# [2] = system: rat optic nerve derived OPCs; assay: High content imaging assay of OPC differentiation (MBP immunostaining, OPERA); type: cell-based
# Protocol: FIG. 1A-C. […] The calculated EC50 values were determined using appropriate Graphpad Prism 5.0 curve fitting software. […] OPCs were plated in 384 well plates at 1000 cells per well in OPC media containing basal PDGF-αα (2 ng/mL) and treated with serial dilutions of compounds. Following six days of compound treatment, cells were fixed and subjected to immunofluorescence analysis using anti-myelin basic protein (MBP) antibody. Image acquisition and quantification of MBP staining was performed using the OPERA imaging system.
# FIG. 11A-B. Screen to identify inducers of OPC differentiation. (A) OPCs were maintained as proliferating A2B5-positive cells under basal growth conditions (Neurobasal medium, B27 supplement without Vitamin A, non-essential amino acids, L-Glutamine, 30 ng/ml PDGF). OPCs were plated in basal differentiation media (Neurobasal medium, B27 supplement without Vitamin A, non-essential amino acids, L-Glutamine, 2 ng/ml PDGF), treated with DMSO (<0.1%) or thyroid hormone (1 uM), fixed after 6 days in culture, and stained using antibodies for CNP, O4, or MBP. […]
# FIG. 12A-B. Primary hit confirmation. […] (EC50) is defined as the concentration that results in a half maximal increase in the percentage of total cells that express MBP as detected by immunostaining. […]
# [3] = system: PLP induced EAE mice; conditions: compounds 10 mg/kg i.p. daily from first EAE symptoms, mycophenolate 20 mg/kg from day 14
# Protocol: (A-E) SJL mice were immunized with proteolipid peptide (PLP) and pertussis toxin and monitored daily with scoring on the standard clinical EAE scale (0-5). Compounds were administered daily for the duration of the study in saline at 10 mg/kg via intra-peritoneal injection (0.1 ml), starting on the day of the appearance of clinical EAE symptoms (day 10). […] Mean clinical EAE score and standard error of mean (SEM) are shown for each study group.
# FIG. 25. […] EAE was induced in mice using PLP and pertussis toxin. […] Prophylactic dosing is defined as administration of compound commenced on the day of PLP injection. Error bars indicate standard deviation of the mean within each group of 8 mice.
# (A-F) EAE was induced in mice using PLP and pertussis toxin. […] Error bars indicate standard deviation of the mean within each group of 8 mice.
# (A-F) EAE was induced in mice by injecting PLP in complete Freund's adjuvant (CFA) and pertussis toxin, and the animals were scored daily for clinical severity of disease on a scale of 0-5. […] Error bars indicate standard deviation of the mean within each group of 8-10 mice.
# 10 week old SJL mice were immunized with PLP emulsion and pertusis toxin to induce EAE. […] Compounds were administered daily via intraperitoneal injection of 100 ul in sterile saline at 10 mg/kg alone or in combination with mycophenolate motefil in sterile saline at pH 5 at 20 mg/kg. […] The mice were scored daily on a standard EAE scale of 0-5.
# This model is most commonly used to evaluate the potential efficacy of immunomodulatory agents, but can also be used to determine the effectiveness of promyelinating agents that function by enhancing OPC differentiation (M. Fernandez et al., Proc Natl Acad Sci U.S.A, 101, 16363 (2004); X. Lee et al., J Neurosci, 27, 220 (2007); reviewed in R. J. Franklin, C. Ffrench-Constant, Nat Rev Neurosci, 9, 839 (2008)). […] We next evaluated efficacy when the drug is dosed therapeutically, by starting daily injections at the first sign of disease onset. […]
compound,measurement,setting,value
"C[N+](C)(C)CCOC(N)=O [Carbachol, carbachol]",intracellular Ca2+ levels,[1]; calcium flux measured for 186 seconds,dose dependent increase
"CCCN1CCC[C@@H]2Cc3n[nH]cc3C[C@H]21 [Quinpirole, quinpirole]",induction of OPC differentiation (MBP staining),[2],did not induce significant differentiation
CN1[C@@H]2CC[C@H]1C[C@@H](OC(c1ccccc1)c1ccccc1)C2 [benztropine],"clinical severity versus vehicle, dosing after disease onset (therapeutic mode)",[3],significantly reduced the intensity of relapse; also recorded: significantly decreased clinical severity in the relapse phase; also recorded: significant decreases in clinical severity in remission phases observed and the occurrence of relapse again virtually eliminated
same,"clinical severity versus vehicle, dosing after disease onset (therapeutic mode)",[3]; listed as Benztropine,decreased the clinical severity of disease
same,effect on carbachol induced Ca2+ influx,[1],inhibits carbachol induced calcium influx
same,effect on carbachol induced Ca2+ influx,[1]; listed as Benztropine,dose dependently blocked
same,effect on carbachol induced Ca2+ influx,[1]; listed as benzatropine,inhibit
CN1CCC[C@@H]1CCO[C@](C)(c1ccccc1)c1ccc(Cl)cc1 [clemastine],"clinical severity versus vehicle, dosing after disease onset (therapeutic mode)",[3],significantly decreased clinical severity in the relapse phase
same,effect on carbachol induced Ca2+ influx,[1],inhibit
